Sequences of proteins named here, by UniProt entry; tags and fusion partners are left off. Residues count along the entry.
UniProt P35968, 786-1356 limits assumed: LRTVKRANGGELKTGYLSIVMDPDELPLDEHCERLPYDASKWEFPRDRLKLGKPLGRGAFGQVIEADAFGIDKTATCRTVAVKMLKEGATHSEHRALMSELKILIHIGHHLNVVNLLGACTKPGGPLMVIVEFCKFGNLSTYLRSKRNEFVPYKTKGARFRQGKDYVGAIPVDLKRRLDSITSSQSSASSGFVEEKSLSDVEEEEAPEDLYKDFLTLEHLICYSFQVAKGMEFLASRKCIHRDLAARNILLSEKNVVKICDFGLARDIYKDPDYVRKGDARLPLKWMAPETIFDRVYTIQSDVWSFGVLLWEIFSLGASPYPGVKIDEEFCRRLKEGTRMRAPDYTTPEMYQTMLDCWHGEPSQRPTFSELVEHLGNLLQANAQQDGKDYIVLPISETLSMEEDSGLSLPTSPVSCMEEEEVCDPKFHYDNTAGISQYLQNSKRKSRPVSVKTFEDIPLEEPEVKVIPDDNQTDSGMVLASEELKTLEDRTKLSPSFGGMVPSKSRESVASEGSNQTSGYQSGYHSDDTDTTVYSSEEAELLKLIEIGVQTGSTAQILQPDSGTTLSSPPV
UniProt P09619, 33-1106 limits assumed: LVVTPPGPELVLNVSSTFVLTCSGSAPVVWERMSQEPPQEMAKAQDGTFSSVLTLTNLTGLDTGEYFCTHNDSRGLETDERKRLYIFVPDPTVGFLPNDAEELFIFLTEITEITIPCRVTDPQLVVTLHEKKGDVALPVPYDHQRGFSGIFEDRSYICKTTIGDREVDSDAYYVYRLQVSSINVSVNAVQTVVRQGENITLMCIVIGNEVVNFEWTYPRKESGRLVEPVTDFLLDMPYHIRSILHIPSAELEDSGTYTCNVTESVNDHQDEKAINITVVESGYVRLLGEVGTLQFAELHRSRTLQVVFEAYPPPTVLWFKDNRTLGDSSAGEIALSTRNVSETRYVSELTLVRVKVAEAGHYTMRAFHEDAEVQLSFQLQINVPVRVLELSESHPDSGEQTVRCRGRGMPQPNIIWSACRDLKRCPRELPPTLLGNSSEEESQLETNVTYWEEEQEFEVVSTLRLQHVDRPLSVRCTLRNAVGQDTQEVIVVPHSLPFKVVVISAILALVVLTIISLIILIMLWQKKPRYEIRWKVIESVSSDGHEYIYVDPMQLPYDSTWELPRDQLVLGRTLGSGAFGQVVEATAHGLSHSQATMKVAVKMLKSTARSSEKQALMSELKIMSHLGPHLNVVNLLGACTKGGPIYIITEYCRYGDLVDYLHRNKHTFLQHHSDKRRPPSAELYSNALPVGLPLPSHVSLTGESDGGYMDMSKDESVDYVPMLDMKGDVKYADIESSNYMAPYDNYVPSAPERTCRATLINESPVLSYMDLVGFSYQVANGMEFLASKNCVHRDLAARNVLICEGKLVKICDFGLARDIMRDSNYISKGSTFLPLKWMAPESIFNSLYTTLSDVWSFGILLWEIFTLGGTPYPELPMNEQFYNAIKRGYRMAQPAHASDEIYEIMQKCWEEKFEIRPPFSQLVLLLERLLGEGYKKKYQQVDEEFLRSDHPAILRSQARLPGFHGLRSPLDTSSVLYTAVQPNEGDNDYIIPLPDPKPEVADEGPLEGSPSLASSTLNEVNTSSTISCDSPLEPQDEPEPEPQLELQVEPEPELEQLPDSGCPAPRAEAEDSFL
UniProt P09619, 554-1106 limits assumed: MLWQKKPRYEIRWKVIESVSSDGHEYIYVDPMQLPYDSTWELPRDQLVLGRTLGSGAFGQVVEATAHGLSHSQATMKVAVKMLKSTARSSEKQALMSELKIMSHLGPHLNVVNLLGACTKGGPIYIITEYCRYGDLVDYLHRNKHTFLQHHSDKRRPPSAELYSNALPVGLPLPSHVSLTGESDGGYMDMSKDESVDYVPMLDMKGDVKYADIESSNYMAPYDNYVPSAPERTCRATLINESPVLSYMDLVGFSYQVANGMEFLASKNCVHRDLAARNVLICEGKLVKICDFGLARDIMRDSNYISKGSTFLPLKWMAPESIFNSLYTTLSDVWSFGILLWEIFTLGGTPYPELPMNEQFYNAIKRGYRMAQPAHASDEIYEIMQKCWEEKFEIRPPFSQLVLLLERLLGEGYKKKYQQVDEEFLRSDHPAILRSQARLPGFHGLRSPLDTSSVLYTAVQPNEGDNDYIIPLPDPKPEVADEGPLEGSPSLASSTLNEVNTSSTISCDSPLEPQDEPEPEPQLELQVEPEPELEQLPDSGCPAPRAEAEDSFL
UniProt P16234, 550-1089 limits assumed: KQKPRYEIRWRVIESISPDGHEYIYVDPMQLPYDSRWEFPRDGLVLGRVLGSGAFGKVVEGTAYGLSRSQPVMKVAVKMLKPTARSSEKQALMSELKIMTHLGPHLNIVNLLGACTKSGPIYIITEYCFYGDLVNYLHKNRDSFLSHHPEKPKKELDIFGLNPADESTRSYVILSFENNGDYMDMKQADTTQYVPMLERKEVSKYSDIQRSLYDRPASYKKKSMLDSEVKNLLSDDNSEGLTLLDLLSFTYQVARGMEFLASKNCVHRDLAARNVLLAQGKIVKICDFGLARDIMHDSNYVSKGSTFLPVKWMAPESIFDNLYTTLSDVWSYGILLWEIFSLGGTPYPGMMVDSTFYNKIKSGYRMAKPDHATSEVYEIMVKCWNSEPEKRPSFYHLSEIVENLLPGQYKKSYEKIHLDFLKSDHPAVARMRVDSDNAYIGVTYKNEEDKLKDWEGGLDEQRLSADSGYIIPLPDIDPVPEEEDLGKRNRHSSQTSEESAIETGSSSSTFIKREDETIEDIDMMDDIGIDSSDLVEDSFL

In US20090036485A1, “Quinoline derivatives” (priority 2004, published 2009):

Columns and labels:
[1] = molecular target: KDR tyrosine kinase (Homo sapiens, UniProt P35968); experiment: In vitro enzyme assay (ELISA), KDR tyrosine kinase; conditions: read-out: IC50 versus KDR tyrosine kinase; Test (a); ATP 8 μM
[2] = molecular target: phospho-Tyr751 PDGFRβ (Homo sapiens, UniProt P09619); experiment: In vitro phospho-Tyr751 PDGFRβ ELISA assay in MG63 osteosarcoma cells; conditions: read-out: IC50 versus phospho-Tyr751 PDGFRβ; Test (b); MG63 cells stimulated with PDGFBB
[3] = molecular target: PDGFRα tyrosine kinase (Homo sapiens, UniProt P16234); experiment: In vitro enzyme assay (ELISA), PDGFRα tyrosine kinase; conditions: read-out: IC50 versus PDGFRα tyrosine kinase; Test (a); ATP 14 μM
Method: The ability of test compounds to inhibit the phosphorylation of a tyrosine containing polypeptide substrate by the tyrosine kinase enzymes PDGFRα, PDGFRβ and KDR was assessed using conventional ELISA assays.
DNA encoding the PDGFRα, PDGFRβ or KDR receptor cytoplasmic domains may be obtained by total gene synthesis (International Biotechnology Lab., 1987, 5(3), 19-25) or by cloning. The DNA fragments may be expressed in a suitable expression system to obtain polypeptide with tyrosine kinase activity. For example, PDGFRα, PDGFRβ and KDR receptor cytoplasmic domains, obtained by expression of recombinant protein in insect cells, can be shown to display intrinsic tyrosine kinase activity. In the case of the VEGF receptor KDR (Genbank Accession No. L04947), a DNA fragment encoding most of the cytoplasmic domain, commencing with methionine 806 and including the termination codon may be cloned into a baculovirus transplacement vector [for example pAcYM1 (see The Baculovirus Expression System: A Laboratory Guide, L. A. King and R. D. Possee, Chapman and Hall, 1992) or pAc360 or pBlueBacHis (available from Invitrogen Corporation)]. This recombinant construct may be co-transfected into insect cells [for example Spodoptera frugiperda 21(Sf21) or Spodoptera frugiperda 9(Sf9)] with viral DNA (for example Pharmingen BaculoGold) to prepare recombinant baculovirus. […]

[4] = molecular target: PDGFRβ tyrosine kinase (Homo sapiens, UniProt P09619); experiment: In vitro enzyme assay (ELISA), PDGFRβ tyrosine kinase; type: biochemical; conditions: read-out: IC50 versus PDGFRβ tyrosine kinase; Test (a); ATP 2.8 μM

Row | IC50 [1] | IC50 [2] | IC50 [3] | IC50 [4] | SMILES
1 | 3 µM | 0.01 µM |  |  | COc1cc2nccc(Oc3cnn(CC(=O)Nc4ccc(N(C)C)cn4)c3)c2cc1C#N
2 | 1.3 µM | < 0.001 µM | 0.1 µM | 0.02 µM | COc1cc2nccc(Oc3cnn(CC(=O)Nc4cccc(N(C)C)c4)c3)c2cc1OC
